The values that follow are results of earlier work, collected in patent publication US4772606A, “Purine derivatives” (Warner-Lambert Company, priority 1985, dated 1988).

Molecules are shown by their SMILES.

For the data set, the system named is PNP. As to conditions: reported by R. Parks et al.; cited from earlier work.

`Nc1nc2nc(N)[nH]c2c(=O)[nH]1` [8-Aminoguanine]: the “PNP-activity” value is on record as “PNP-activity”.
